Reference: PubChem BioAssay AID652054 (National Center for Advancing Translational Sciences (NCATS), 2013)
Only a part is listed here, and it is no random draw. Records with an inconclusive call do not appear. Active and inactive are the calls of the source. No stated cut-off is given here; in the data, active means max response below about -50%; inconclusive means no clear call, values can overlap the other calls; inactive means above that.

Chains of the proteins cited; added tags and fusions are not shown.
UniProt P35462, whole entry, looked up: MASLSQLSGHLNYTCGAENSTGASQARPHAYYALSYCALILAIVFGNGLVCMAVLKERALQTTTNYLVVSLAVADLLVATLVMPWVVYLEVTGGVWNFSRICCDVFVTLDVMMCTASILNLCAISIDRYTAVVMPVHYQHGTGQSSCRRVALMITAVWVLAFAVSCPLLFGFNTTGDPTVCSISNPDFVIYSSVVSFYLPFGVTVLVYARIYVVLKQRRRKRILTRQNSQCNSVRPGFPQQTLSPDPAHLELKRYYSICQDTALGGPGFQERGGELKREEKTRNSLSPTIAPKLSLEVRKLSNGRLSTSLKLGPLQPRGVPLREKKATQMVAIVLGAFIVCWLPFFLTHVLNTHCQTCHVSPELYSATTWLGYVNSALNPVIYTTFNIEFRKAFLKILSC

Biological target: D(3) dopamine receptor (Homo sapiens) (UniProt P35462)
Assay: qHTS of D3 Dopamine Receptor Antagonist: qHTS
Settings: D3R cells, DiscoveRx beta-arrestin luminescence, antagonist mode; stronger effect = lower value
Method in brief: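 Cells plated overnight at 1500 cells/well, then exposed to library compounds with dopamine controls for 90 minutes at 37 degrees C. DiscoveRx reagent added for 30–60 minutes at room temperature; luminescence read, quantitative HTS format.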
On the % scale 0 is the no-effect control and ±100 the full control effect.

| SMILES | max response, negative = inhibition |
| --- | --- |
| CC(C)C(=O)NC(Sc1ccccc1)C(Cl)(Cl)Cl (stereo unspecified) | inactive: -18.2% |
| O=P(Nc1nccs1)(c1ccccc1)c1ccccc1 | inactive: 0.148% |
| c1nnnn1CCn1cnnn1 | inactive: 4.17% |
| C[C@H]1OP(=O)(Oc2ccccc2)C[C@@H]2O[C@@H]21 (stereo partly specified) | inactive: 26.2% |
| C[C@@H]1C=CCP(=O)(Oc2ccccc2)O1 (stereo partly specified) | inactive: 15.4% |
| Cc1ccccc1CN(C)C(=O)COC(=O)C(O)(c1ccccc1)c1ccccc1 | inactive: 24.7% |
| COC(=O)C1(C)COP(=O)(NCc2ccccc2)OC1 (stereo unspecified) | inactive: 4.15% |
| CC(=O)c1ccc(N2CC2c2ccncc2)cc1 (stereo unspecified) | active: -53.2% |
| N#C/C(=C\c1ccc(N(CCBr)CCBr)cc1)C(N)=O | inactive: 11.6% |
| CC(=O)Nc1ccc(Oc2c([N+](=O)[O-])cc([N+](=O)[O-])cc2[N+](=O)[O-])cc1 | inactive: -13.3% |
| CC(=O)Nc1ccc([As](=O)(O)O)c(O)c1 | inactive: -1.39% |
| CCOc1ccc(C2=NCC(CBr)S2)cc1 (stereo unspecified) | inactive: -10.4% |
| O=P1(Nc2nc3ccc(Cl)cc3s2)COc2ccccc2O1 (stereo unspecified) | inactive: 9.16% |
| CC(C)(C)C(=O)NC(Sc1ccccc1)C(Cl)(Cl)Cl (stereo unspecified) | inactive: -4.64% |
| CCc1cc(O)c([N+](=O)[O-])c(C)c1[N+](=O)[O-] | inactive: -20.7% |
| CCC(=O)N1C2C3N(C(=O)CC)C1C1N(C(=O)CC)C(C(N1C(=O)CC)N3C(=O)CC)N2C(=O)CC | inactive: 14% |
| O=C(OC1CN2CCC1CC2)c1ccccc1 (stereo unspecified) | inactive: -3.17% |
| Cc1ccc(OP(=O)(Nc2ccccn2)Oc2ccc(C)cc2)cc1 | inactive: 13.3% |
| CC(=O)NC(SC(=S)N(CC(C)C)CC(C)C)C(Cl)(Cl)Cl (stereo unspecified) | inactive: 3.94% |
| COC(=O)c1cc2c(s1)N=C(c1ccccc1)N(C)P2(=O)N1CCOCC1 (stereo unspecified) | inactive: 5.3% |
| O=c1c2cc([N+](=O)[O-])ccc2[nH]c2c([N+](=O)[O-])cc([N+](=O)[O-])cc12 | inactive: -27.9% |
| CN(C)C(=O)Oc1noc2ccccc12 | inactive: -3.87% |
| CC(NC(=O)COC(=O)C(O)(c1ccccc1)c1ccccc1)c1ccccc1 (stereo unspecified) | inactive: 3.5% |
| Cc1ccccc1OP(=O)(Nc1ccccn1)Oc1ccccc1C | inactive: 16.5% |

| SMILES | max response, negative = inhibition |
| --- | --- |
| Cc1ccc(NP(=O)(Oc2cccc(C)c2)Oc2cccc(C)c2)nc1 | inactive: 0.969% |
| c1ccc(-c2nn[nH]n2)c(-c2nn[nH]n2)c1 | inactive: -8.91% |
| CCNC(=S)/N=C(\N)N[N+](=O)[O-] | inactive: -0.105% |
| O=C(NC1CCS(=O)(=O)C1)NP(=S)(Oc1ccccc1)Oc1ccccc1 (stereo unspecified) | inactive: -7.2% |
| O=P1(N(CCCl)CCCl)OCCC2CCCCN21 (stereo unspecified) | inactive: -7% |
| Nc1cccc2ccc([As](=O)(O)O)cc12 | inactive: 1.73% |
| CCN(N=Nc1nonc1N)c1nonc1N | inactive: 24.4% |
| O=P(Nc1nc2ccc(Cl)cc2s1)(c1ccccc1)c1ccccc1 | inactive: 43.6% |
| CN(C)P(=O)(N(C)C)n1c(Nc2ccccc2)nnc1-c1ccccc1 | inactive: 12.6% |
| CCCC1OP(N)(=O)OCC1CC (stereo unspecified) | inactive: -3.64% |
| CC(=O)Nc1ccc([As](=O)(O)O)cc1 | inactive: 6.9% |
| O=C(O)c1ccccc1[As](=O)(O)O | inactive: -27.7% |
| Cc1ccc(NP(=O)(Oc2ccccc2F)Oc2ccccc2F)nc1 | inactive: -4.56% |
| CN(C(=O)Cc1ccc(Cl)c(Cl)c1)[C@H]1CCCC[C@@H]1N1CCCC1 | inactive: -18.1% |
| Cc1cc(SC(NC(=O)c2ccc(F)cc2)C(Cl)(Cl)Cl)ncn1 (stereo unspecified) | inactive: 1.37% |
| CCOP(=O)(Nc1ccccc1)OCC | inactive: 0.403% |
| Oc1ccccc1CNc1ccccn1 | inactive: 7.9% |
| Nc1cc(N)c2nonc2c1[N+](=O)[O-] | inactive: -19.2% |
| CC(C)CC(=O)NC(Sc1ccc(Cl)cc1)C(Cl)(Cl)Cl (stereo unspecified) | inactive: -11.3% |
| O=[N+]([O-])C1C(O)C(O)C([N+](=O)[O-])C(O)C1O (stereo unspecified) | inactive: 36.8% |
| Cc1ccc(N/C(=N/P(=O)(N2CCOCC2)N2CCOCC2)N2CCOCC2)cc1 | inactive: -7.64% |
| CN(C(=O)Cc1ccc(Cl)c(Cl)c1)[C@H]1CCCC[C@H]1N1CCCC1 | inactive: -19.7% |
| NC(=O)c1cc([N+](=O)[O-])cc([N+](=O)[O-])c1N | inactive: 8.59% |
| CN1CCCC(OC(=O)C(c2ccccc2)c2ccccc2)C1 (stereo unspecified) | active: -68.1% |

| SMILES | max response, negative = inhibition |
| --- | --- |
| Clc1ccc(Cl)c(NC2=NCC(CBr)S2)c1 (stereo unspecified) | inactive: 12.3% |
| Cc1ccc(OP(=O)(Nc2nccs2)Oc2ccc(C)cc2)cc1 | inactive: 2.03% |
| COc1ccccc1OP(=O)(Nc1ccc(C)cn1)Oc1ccccc1OC | inactive: 8.15% |
| CCN(/C(=N/P(=O)(N1CCOCC1)N1CCOCC1)N1CCOCC1)c1ccc(OC)cc1 | inactive: 2.44% |
| C[N+]1=C2C=CC=CC=C2SC12C([N+](=O)[O-])=CC([N+](=O)[O-])=C[C-]2[N+](=O)[O-] (stereo unspecified) | active: -90.2% |
| Nc1ccc([As](=O)(O)c2ccc(N)cc2)cc1 | inactive: 9.77% |
| CC1CCN(C(=O)Oc2c(Cl)cc(Cl)c3cccnc23)CC1 | inactive: 17.3% |
| c1cc(-c2nn[nH]n2)ccc1-c1nn[nH]n1 | inactive: -1.65% |
| CN(C)C(=O)OCCc1n(C)cc[n+]1C | inactive: 6.09% |
| CC(C)c1nc(Nc2ccccc2)n(P(=O)(N(C)C)N(C)C)n1 | inactive: 2.29% |
| CC(C)=N/N=C(\N)N[N+](=O)[O-] | inactive: -7.22% |
| COc1ccc(C2=NCC(CBr)S2)cc1 (stereo unspecified) | inactive: 1.51% |
| CCc1nc2c(n1)c1c(non1O)c1c2no[n+]1[O-] | inactive: -5.78% |
| O=[N+]([O-])c1cc([N+](=O)[O-])c(CCNc2ccccc2)c([N+](=O)[O-])c1 | inactive: -18.3% |
| Cc1ccc(NP(=O)(Oc2ccccc2)Oc2ccccc2)nc1 | inactive: -10.9% |
| CC(=O)N1C2C3N(C(C)=O)C1C1N(C(C)=O)C(C(N1C(C)=O)N3C(C)=O)N2C(C)=O | inactive: 0% |
| O=[N+]([O-])c1ncn(CCn2ncnc2[N+](=O)[O-])n1 | inactive: 15.7% |
| CC(C)(C)C(=O)NC(Sc1ccncn1)C(Cl)(Cl)Cl (stereo unspecified) | inactive: -11% |
| O=C(O)CNc1ccc([As](=O)(O)O)cc1 | inactive: 2.05% |
| COC(=O)C1(C)COP(=O)(Nc2ccccc2)OC1 (stereo unspecified) | inactive: -4.78% |
| O=[N+]([O-])c1cccc(NC2=NCC(CBr)S2)c1 (stereo unspecified) | inactive: 0.223% |
| O=P1(N(CCCl)CCCl)OCCCS1 (stereo unspecified) | inactive: -16.2% |
| O=C(Nc1cc([As](=O)(O)O)ccc1O)c1ccccc1 | inactive: -0.779% |
